ChEMBL document CHEMBL3627606, “Development of Novel, CNS Penetrant Positive Allosteric Modulators for the Metabotropic Glutamate Receptor Subtype 1 (mGlu1), Based on an N-(3-Chloro-4-(1,3-dioxoisoindolin-2-yl)phenyl)-3-methylfuran-2-carboxamide Scaffold, That Potentiate Wild Type and Mutant mGlu1 Receptors Found in …” (J Med Chem, 2015)

Legend:
[1] = species: Homo sapiens; assay: Intrinsic clearance in human hepatocytes at 1 uM by LC-MS/MS analysis; settings: read-out: CLH
[2] = species: Homo sapiens; assay: Selectivity index, ratio of EC50 for human mGlu4 receptor to EC50 for human mGlu1 receptor

| Compound | CLint scaled at 1 µM [1] [mL/min/kg] | Ratio EC50 [2] |
| --- | --- | --- |
| O=C(Nc1ccc(N2C(=O)c3cccc(Cl)c3C2=O)c(Cl)c1)c1ncccc1Cl | 9.46 | – |
| Cc1ccoc1C(=O)Nc1ccc(N2C(=O)c3ccncc3C2=O)c(Cl)c1 | 18.6 | – |
| Cc1ccoc1C(=O)Nc1ccc(N2C(=O)c3ccc(Cl)cc3C2=O)c(Cl)c1 | 2.54 | 27.8 |
| O=C(Nc1nc(C(F)(F)F)co1)C1c2ccccc2Oc2ccccc21 | 19.4 | – |
